In experiment [1] the target is T1, Neutrophil elastase (Homo sapiens, UniProt P08246).
T1 sequence (P08246 whole entry): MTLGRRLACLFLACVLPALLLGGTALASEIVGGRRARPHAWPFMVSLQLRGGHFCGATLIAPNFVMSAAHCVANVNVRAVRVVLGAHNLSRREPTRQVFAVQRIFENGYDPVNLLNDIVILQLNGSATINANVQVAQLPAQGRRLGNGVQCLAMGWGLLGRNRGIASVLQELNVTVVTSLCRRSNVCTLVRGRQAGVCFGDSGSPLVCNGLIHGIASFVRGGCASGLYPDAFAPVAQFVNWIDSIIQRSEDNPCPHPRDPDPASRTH
The experiment in a line: Inhibition of elastase in human neutrophil using MeOSuc-AAPV-AMC as substrate by fluorescence based analysis. It is filed as cell-based. The method in brief: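 Fluorogenic assay with HNE (MeOSucAAPV-AMC substrate) or human KLK7 ([…] substrate). Test compounds ran as a 10-dose, 3-fold dilution series from 1 μM in duplicate, with controls tested in the same run. Activity was taken from the initial linear slope of the fluorescence increase over time. Results are mean of n = 2, expressed relative to 0.5% DMSO vehicle.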

The target in experiment [2] is T1, Neutrophil elastase. The experiment in a line: Inhibition of elastase in human neutrophil using N-(OMe-succinyl)-Ala-Ala-Pro-Val-p-nitroanilide as substrate preincubated with enzyme for 15 mins followed by substrate addition and measured every 30s for 30 mins by absorbance based analysis. The gist of the method: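 HNE stock at 100 μg/mL and substrate stock at 2 mM, both in 0.1 M Tris–0.5 M NaCl pH 7.5. Compound or DMSO was preincubated with enzyme in the same buffer for 15 min at room temperature, then substrate was added. A405 was read every 30 s for 30 min. Activity was taken from the initial slope as a percentage of the uninhibited reaction.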

For the compound `CC(C)(C)C(=O)Oc1ccc(S(=O)(=O)Nc2ccccc2C(=O)NCC(=O)O)cc1`, the results for the concentration for half-maximal inhibition (IC50) in experiment [1] and in experiment [2] were 3.5 nM and 128 nM, respectively.

For the origin of these results see ChEMBL document CHEMBL5244265 (Bioorg Med Chem, 2020).
